Reference: article PMC11436673 (Journal of Experimental Pharmacology, 2024)
pIC50: −log10 of the molar value.

Amino acid sequences for entries named in this document (tags omitted).
UniProt Q99685, whole entry: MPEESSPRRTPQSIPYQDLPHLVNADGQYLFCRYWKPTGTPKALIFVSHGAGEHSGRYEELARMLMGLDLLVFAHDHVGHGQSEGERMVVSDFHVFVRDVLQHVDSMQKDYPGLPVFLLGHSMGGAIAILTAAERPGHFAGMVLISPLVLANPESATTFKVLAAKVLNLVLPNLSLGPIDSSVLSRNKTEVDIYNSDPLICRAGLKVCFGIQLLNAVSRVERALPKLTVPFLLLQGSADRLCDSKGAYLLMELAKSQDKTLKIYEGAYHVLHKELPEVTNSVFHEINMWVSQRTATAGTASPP

Molecular target: human monoacylglycerol lipase (MGL) (Homo sapiens, UniProt Q99685)
Format: biochemical

With `O=C(Oc1ccc([N+](=O)[O-])cc1)N1CCN(Cc2cccc(Oc3ccccc3)c2)CC1` [JZL195, 4‐nitrophenyl 4‐(3‐phenoxy benzyl) piperazine ‐1‐carboxylate] the pIC50 was 7.19.
